Marks after values point to notes of the source that are not given here.
Settings: oral 75 mg paclitaxel equivalents/animal, fasted male beagle dogs (N = 4)

AUC0-t(parent)/AUC0-t(prodrug) (conversion prodrug to parent): 1.48% | AUC0-t of paclitaxel (parent): 24.3 ng·h/mL | AUC0-t of prodrug: 1778^b) hr * ng/mL | AUC0-∞ of paclitaxel (parent): 52.0 ng·h/mL | AUC0-∞ of prodrug: 1882^c) hr * ng/mL | Cmax of paclitaxel (parent): 2.26 ng/mL | Cmax of prodrug: 422^a) ng/mL | Tmax of paclitaxel (parent): 8.00 h | Tmax of prodrug: 2.00 h | t1/2 of paclitaxel (parent): 19.6 h | t1/2 of prodrug: 6.44 h
Substance: paclitaxel undecanoate

— US11197828B2, “Solid oral dosage form of lipophilic compounds” (SOLURAL PHARMA APS, priority 2014, dated 2021)
